Experimental data: article PMC4401541, “Structure- and Ligand-Based Virtual Screening Identifies New Scaffolds for Inhibitors of the Oncoprotein MDM2” (PLoS ONE, 2015)

Columns and labels:
MDM2-N [1] = molecular target: T1, MDM2-N (Homo sapiens, UniProt Q00987); experiment: Competitive capillary electrophoresis (CE) assay, compound vs fluorescently labelled p53 peptide (p53-F); assay type: binding; conditions: read-out: CE % inhibition at 300 μM
Description: Capillary electrophoresis (CE) is an analytical technique used to study the interaction between biomacromolecules. In CE, electrophoresis is carried out in the interior of a narrow capillary. The technique separates ions based on their electrophoretic mobility with the use of applied voltage. The electrophoretic mobility is dependent on the charge of the molecule, the viscosity and the molecular size. CE is performed using a high voltage to produce a high resolution profile with a short migration time to separate numerous analytes. […] The assay provides a high sensitivity through the use of a Laser Induced Fluorescence (LIF) detector to enable the detection of weak binding fragments. This enables the interaction assay to be performed with a low labelled probe concentration and allows compounds to be screened at low concentrations. A competitive CE assay was used to detect competition between compounds and fluorescently labelled p53 peptide (p53-F) in MDM2-N/p53 binding site. The injection sample contained carboxyfluorescein (internal standard (10pM)) and p53-F (500pM) in TAPS/Tris (1mM) pH 8.0, DTT (1mM). […] After injection of the sample, a voltage of 10kV was applied and separation was carried out for 6.5min.
TR is the migration time of p53-F peak.
TL is the migration time of p53-F peak in the presence of MDM2-N + compound.

MDM2-N [2] = molecular target: T1, MDM2-N; experiment: Fluorescence polarization (FP) competition assay with p53-F; assay type: binding; conditions: read-out: FP % inhibition at 700 μM; compound 700 μM; MDM2-N 500 nM; p53-F 2 nM
Description: Fluorescence polarization experiments were performed with a LJL Biosystems Analyst multi-plate reader in 50mM HEPES pH 7.5, 100mM NaCl, 1mM DTT. Fluorescein labelled p53 peptide (p53-F) was synthesised by Biomatiks. […] The competition experiments were carried out by mixing MDM2-N (500nM), p53-F (2nM) and test compound in black NBS plate. […] The inhibition (%) was calculated using the equation below. %Inhibition=100(AF-AL)/(AF-AU) Where: AF is the anisotropy of fully bound p53-F.
AU is the anisotropy of unbound p53-F.
AL is the anisotropy of p53-F in the presence of MDM2-N + compound.

`O=C(O)c1ccccc1Nc1ccccc1` [Compound 45] gave an inhibition at 300 µM (MDM2-N [1]) of 43% and an inhibition at 700 µM (MDM2-N [2]) of 27%.
